Assay results published in patent publication US4136193A, “Anti-depressive substituted 1-dimethylaminopropyl-1-phenyl phthalans” (Kefalas A/S, priority 1976, dated 1979).

test system: 14C-5-HT-uptake in rabbit blood platelets; test: Inhibition of 14C-5-HT-uptake in rabbit blood platelets in vitro; format: cell-based; settings: Oryctolagus cuniculus, Platelet, pH 7.2, read-out: C14 5-HT uptake inhibitory concentration IC50
Protocol: Two ml of rabbit platelet-enriched plasma, containing EDTA as an anticoagulant, were incubated with test compound and 2 ml of 0.05 M Na-P-buffer, pH 7.2, for 5 minutes at 37° C. […] The incubation was terminated by transferring the test tubes to an ice bath, and the platelets were isolated by centrifugation (~4000 g, 5 min., 4° C.). After draining, the platelets were gently washed with 4 ml of ice-cold saline, and the remaining radioactivity was determined. The uptake in the test samples was calculated in percent of the uptake in the control group and plotted against the concentration of test compound on semilogarithmic probability paper, from which the IC50-value was determined.

Point of comparison: `CN(C)CCCN1c2ccccc2CCc2ccc(Cl)cc21` [Chlorimipramine, reference compound], IC50 77 nM. Against it:
- CN(C)CCC=C1c2ccccc2CCc2ccccc21 [Amitriptyline, reference compound] — 6.5-fold higher, 500 nM
- CN(C)CCCC1(c2ccc(F)cc2)OCc2cc(C#N)ccc21 (stereo not drawn) [Lu 10-171, 1-(4'-fluorophenyl)-1-(3-dimethylaminopropyl)-5-phthalancarbonitrile] — 5.5-fold lower, 14 nM
